Assay results published in ChEMBL document CHEMBL5042497, “Design, synthesis, and biological evaluation of carbamate derivatives of N-salicyloyl tryptamine as multifunctional agents for the treatment of Alzheimer's disease” (Eur J Med Chem, 2022).

Sequences of proteins named here, by UniProt entry; tags and fusion partners are left off.
UniProt P81908, whole entry: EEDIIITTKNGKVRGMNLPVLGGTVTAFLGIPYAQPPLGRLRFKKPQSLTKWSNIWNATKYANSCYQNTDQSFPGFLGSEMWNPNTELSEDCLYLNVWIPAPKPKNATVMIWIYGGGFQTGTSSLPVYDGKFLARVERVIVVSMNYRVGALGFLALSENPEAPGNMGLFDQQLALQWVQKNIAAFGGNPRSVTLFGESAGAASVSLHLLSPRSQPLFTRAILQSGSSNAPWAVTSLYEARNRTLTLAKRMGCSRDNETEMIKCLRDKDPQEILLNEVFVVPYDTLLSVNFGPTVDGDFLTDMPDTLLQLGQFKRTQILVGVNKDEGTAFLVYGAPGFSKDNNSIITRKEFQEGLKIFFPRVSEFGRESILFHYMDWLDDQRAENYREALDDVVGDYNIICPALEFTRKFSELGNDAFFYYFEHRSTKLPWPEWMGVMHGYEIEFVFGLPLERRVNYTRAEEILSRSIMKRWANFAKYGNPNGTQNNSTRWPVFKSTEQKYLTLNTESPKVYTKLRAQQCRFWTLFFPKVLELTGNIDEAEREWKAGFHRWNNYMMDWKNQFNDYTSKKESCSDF

Legend:
[1] = target: Cholinesterase (Equus caballus) (UniProt P81908); assay: Reversible inhibition of equine serum BChE assessed as residual enzyme activity using butyrylthiocholine iodide as substrate at 1 times IC50 incubated for 30 mins by Ellman's method
[2] = target: Cholinesterase (Equus caballus) (UniProt P81908); assay: Reversible inhibition of equine serum BChE assessed as residual enzyme activity using butyrylthiocholine iodide as substrate at 0.1 times IC50 incubated for 30 mins by Ellman's method

CON(C)C(=O)Oc1ccccc1C(=O)NCCc1c[nH]c2ccccc12
inhibition [1]: 95.1%
inhibition [2]: 91.3%
